Laboratory results from ChEMBL document CHEMBL4406897 (Bioorg Med Chem, 2019).

Test system: Plasmodium falciparum
Test: Potency index, ratio of Ki for 5-(3-chlorophenyl)-6-ethylpyrimidine-2,4-diamine to KI for compound for competitive inhibition of wild type Plasmodium falciparum dihydrofolate reductase expressed in Escherichia coli BL21(DE3)pLysS

## Cl.Nc1nc(N)c(-c2cccc(Cl)c2)c(CCCOc2ccccc2)n1
  Ratio Ki: 3 to 30
